# System: TS/A cells (HER-2 negative)
# Experiment: Proliferation assay (MTT) of TS/A cells in presence of HRG
# Format: cell-based, mouse
# Settings: HER-2 negative cell line
# Procedure: Proliferation assay. BT-474, SK-BR-3, MDA-468 and TS/A cells (1×10^4 were plated in 96-well flat-bottom plates overnight. Growth medium was replaced with low sera (1% FCS) medium and the cells were incubated overnight. Media were removed from the wells and replaced with low sera medium containing HER-2 and VEGF mimic peptides at concentrations ranging from 25-150 ug/ml and plates were incubated an additional 1 h at 37° C. before adding 10 ng/ml HRG in 1% medium. Plates were incubated for an additional 72 h at 37° C. before adding MTT (5 mg/ml) to each well. Plates were incubated 2 h at 37° C., and 1000 of extraction buffer (20% SDS, 50% dimethylformamide (pH 4.7)) was added to each well. Plates incubated overnight at 37° C. and read on an ELISA reader at 570 nm with 655 nm background subtraction Inhibition percentage was calculated as 100%×(Untreated cells-Peptide treated cells)/(Untreated cells).
# Antiproliferative effects of peptides. The antiproliferative effects of the peptides were tested using four different cell lines (Bt-474 and SK-BR-3: HER-2^high, MDA-468: HER-2^low and TS/A: HER-2^negative) (FIGS. 13A-13D) in the presence of HRG to activate the HER-3 receptor. Unlike trastuzumab that is specific to HER-2 positive cells, pertuzumab is known to act on cells by disrupting ligand dependent receptor complexes independent of HER-2/neu expression. […]
substance,measurement,value
"Trastuzumab: humanized mAb that targets HER-2, positive control [reference compound]",antiproliferative effect on TS/A cells,no inhibition
